Values of other authors as cited in patent US12552793B2, “Purine derivative and medical use thereof” (KANGBAIDA (SICHUAN) BIOTECHNOLOGY CO., LTD., priority 2019, dated 2026).

Molecular target: DNA-PK (Homo sapiens (Human), UniProt P78527)
Settings: read-out: IC50 (DNA-PK); literature value (Sarkaria et al., 1998); cited from earlier work

## COC[C@H]1OC(=O)c2coc3c2[C@@]1(C)C1=C(C3=O)[C@@H]2CCC(=O)[C@@]2(C)C[C@H]1OC(C)=O [Wortmannin]
  IC50: ~0.015 µM
